Molecular target: bovine serum albumin (Bos taurus, UniProt P02769)
Test: coagulation of bovine serum albumin solution
Experimental: The oxide powder was allowed to settle to the bottom of the vessel (0.5 ml capacity Eppendorf tube) and was left undisturbed for 2 hours.
(§1) The vessel was left undisturbed for 30 minutes.
as §1, §1, §1, §1
The vessel was left undisturbed for 24 h.

The chains behind the UniProt entries cited, without tags or fusion partners. Residues count along the entry.
UniProt P02769, 25-607: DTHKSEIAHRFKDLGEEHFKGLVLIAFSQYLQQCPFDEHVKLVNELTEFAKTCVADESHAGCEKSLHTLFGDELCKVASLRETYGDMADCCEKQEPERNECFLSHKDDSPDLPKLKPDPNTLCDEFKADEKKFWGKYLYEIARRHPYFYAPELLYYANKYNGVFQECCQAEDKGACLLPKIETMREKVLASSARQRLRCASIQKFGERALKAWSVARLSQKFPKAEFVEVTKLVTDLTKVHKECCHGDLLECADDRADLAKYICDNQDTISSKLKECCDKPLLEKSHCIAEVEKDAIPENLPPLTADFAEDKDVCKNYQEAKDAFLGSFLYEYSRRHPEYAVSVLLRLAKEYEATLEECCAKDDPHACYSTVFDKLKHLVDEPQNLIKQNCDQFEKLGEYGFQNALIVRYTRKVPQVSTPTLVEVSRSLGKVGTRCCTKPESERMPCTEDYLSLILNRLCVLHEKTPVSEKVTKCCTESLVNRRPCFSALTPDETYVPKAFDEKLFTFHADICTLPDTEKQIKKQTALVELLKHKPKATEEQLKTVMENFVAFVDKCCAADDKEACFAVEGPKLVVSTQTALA

gold (III) chloride was tested, and the coagulation (1 μl aliquot of 350 mg/ml solution in PBS pH 7.4, 100 μl BSA 40 mg/ml, 30 minutes) was “a coagulated, opaque mass of several millimetres thickness was formed”, the coagulation (2 μl aliquot of 350 mg/ml solution in PBS pH 7.4, 100 μl BSA 40 mg/ml, 30 minutes) was “a coagulated, opaque mass of several millimetres thickness was formed” and the coagulation (3 μl aliquot of 350 mg/ml solution in PBS pH 7.4, 100 μl BSA 40 mg/ml, 30 minutes) was “a coagulated, opaque mass of several millimetres thickness was formed”. For the same substance, the coagulation (4 μl aliquot of 350 mg/ml solution in PBS pH 7.4, 100 μl BSA 40 mg/ml, 30 minutes) was “a coagulated, opaque mass of several millimetres thickness was formed”, the coagulation (5 μl aliquot of 350 mg/ml solution in PBS pH 7.4, 100 μl BSA 40 mg/ml, 30 minutes) was “a coagulated, opaque mass of several millimetres thickness was formed” and the coagulation (5 μl aliquot of 350 mg/ml solution, BSA solution (100 gi, 40 mg/ml), 1.0 ml syringe, 24 h) was “the fluid coagulated”. For the same substance, the “depth of coagulated mass versus quantity of gold present” value (Examples 4-8, 1-5 μl aliquots, digital image) was “a comparable linear increase in the depth of coagulated mass”.
